Patent EP4847049A1, “DIAGNOSTIC AGENT FOR CARDIAC FUNCTION” (dated 2026)
Like-named read-outs stand apart in the source and are kept apart here.

Experiments:
mitochondrial function = assay: PET measurement of side effects on the heart after doxorubicin (DOX) administration; settings: PET with [^18F]BCPP-BF, vs solvent control, FIG. 3
Method: (§1) The rats were anesthetized with isoflurane and fixed in a gantry of an animal PET camera (SHR-38000, manufactured by Hamamatsu Photonics K.K.). After 15-minute transmission measurement was carried out for absorption correction, about 20 MBq/0.5 mL of [^18F]BCPP-BF was administered to the rats via the tail vein and 60-minute emission measurement was carried out. A region of interest was set on the heart, and the amount of [^18F]BCPP-BF accumulated in the region of interest was calculated. Subsequently, the calculated accumulation amount was normalized by the amount of radioactivity administered and the body weight of each individual and defined as an amount of [^18F]BCPP-BF accumulated in the heart (amount of radioactivity accumulated (SUV)). As a control, the amount of [^18F]FDG accumulated in the heart (amount of radioactivity accumulated (SUV)) was measured in the same manner except that [^18F]FDG was used instead of [^18F]BCPP-BF.
(§2) 5 mg/kg or 20 mg/kg of DOX was administered intravenously via the tail vein of the rats. As a control, rats to which only the solvent was similarly administered intravenously were prepared. The rats were subjected to PET measurement 0.5 hours, 24 hours, and 96 hours after administration of DOX or the solvent. The procedure for PET measurement is the same as in Test Example 2.

[1] = 3 weeks after repeated intravenous administration of 3 mg/kg of DOX every week; cited from earlier work
[2] = cited from earlier work
[3] = tested on: mitochondrial function of the heart; assay: PET measurement of side effects on the heart after acetaminophen (APAP) administration; settings: 24 hours after administration, PET with [^18F]BCPP-BF, vs solvent control, FIG. 2(A)
Method: as §1
as §2, with “100” for “5”, “300” for “20”, “APAP” for “DOX”, “measurement” for “measurement 0.5 hours,”, “24” for “24 hours, and 96”, “2. […]” for “2.”

hearts of rats = settings: cited from earlier work
[4] = cited from earlier work; remark: listed apart in the source

Q: With `COc1cccc2c1C(=O)c1c(O)c3c(c(O)c1C2=O)C[C@@](O)(C(=O)CO)C[C@@H]3O[C@H]1C[C@H](N)[C@H](O)[C@H](C)O1` as the compound, how does the “mitochondrial function (heart)” value (mitochondrial function; high-dose (20 mg/kg) DOX intravenous, starting 24 hours after administration) read?
A: The value was “significant decrease in mitochondrial function”.

Q: And the “mitochondrial function (heart)” value (mitochondrial function; low-dose (5 mg/kg) DOX intravenous, 96 hours after administration)?
A: The value was “significant decrease in mitochondrial function”.

Q: What about the “changes in cardiac function (heart rate, cardiac output), TnI, LDH and myocardial metabolism (hyperpolarized [1-^13C]pyruvate and [2-^13C]pyruvate)” value [1] of the same compound?
A: The value was “could not be detected”.

Q: And the “abnormalities in cardiac function by CK and troponin I (TnI)” value ([2]; 24 hours after intravenous administration of 20 mg/kg of DOX)?
A: The value was “could not be detected”.

Q: And the “abnormalities in cardiac function by CK, TnI, LDH and FABP3” value ([2]; 24 hours after intravenous administration of DOX 40 mg/kg)?
A: Its value is “could not be detected”.

Q: With `CC(=O)Nc1ccc(O)cc1` as the compound, how does the “effect on the mitochondrial function of the heart” value ([3]; 100 mg/kg APAP intravenous) read?
A: The value was “significant effect”.

Q: What about the “effect on the mitochondrial function of the heart” value ([3]; 300 mg/kg APAP intravenous) of the same compound?
A: The value was “significant effect”.

Q: What about the “histological necrotic changes in the myocardium” value (hearts of rats; 24 hours after oral administration of 1,000 mg/kg of APAP) of the same compound?
A: Its value is “not observed”.

Q: And the “expression of inflammation-related genes in the hearts” value (hearts of rats; hearts excised 24 hours after oral administration of 1,000 mg/kg of APAP)?
A: Its value is “increase”.

Q: What about the blood pressure ([4]; 2 minutes after intravenous administration of 125 mg/kg of APAP) of the same compound?
A: The blood pressure was “transient significant increase”.

Q: And the blood pressure ([4]; after 3 minutes, intravenous 125 mg/kg of APAP, vs solvent administration group)?
A: Its blood pressure is “no significant difference”.

Q: What about the heart rate ([4]; intravenous 125 mg/kg of APAP) of the same compound?
A: The heart rate was “no effect was observed”.
